High-throughput results as filed in PubChem.
Most compounds without a hit are left out; they make up all but 2.8% or so of the library.
E-sel inducer = E-selectin induction in HUVECs, primary screen, imaging, HUVEC, immunofluorescence imaging, single point | P16581 | normalized: neutral wells 0, TNF-alpha wells 100 | activation, % at 7.58 µM | hit rate 0.37% among 260,000;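 active means mean E-selectin-positive cell signal at least 10% of the positive control, reached in at least 60% of replicates, without over 20% cell loss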
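System: HUVEC, human umbilical vein endothelial cells; quantity: 3,000 cells/well; buffer or medium: EGM-2 medium, gelatin-coated wells; dosing: single-point compound dose; detection: immunofluorescence imaging; evaluation: % PE-positive cells; benchmarks: TNF-alpha, DMSO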
Yeast UUG start = modulators of yeast start codon fidelity, primary screen, whole organism, S. cerevisiae, single point, plate reader | AID 602363, 2012 | S. cerevisiae UUG-firefly luciferase reporter, luminescence/redox ratio | activity score, % at 18.7 µM | hit rate 0.13% among 350,000;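 active = replicate mean at a twofold rise or more, about +100% in these data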;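 also: firefly luciferase made from a UUG start codon reports start codon fidelity; reporter light over untreated wells divided by growth signal over untreated wells; some hits fall short of that in this replicate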
PGC1a acetyl inh = inhibitors of PGC1a acetylation signal, primary screen, cell-based, U2OS, AlphaScreen, inhibitor mode; AlphaScreen anti-acetyl-lysine; with virally co-expressed GCN5 acetyltransferase; inhibition, % at 15.6 µM; hit rate 0.17% among 350,000; AID 651687, 2012;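 active means every replicate shows inhibition of at least 40%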;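 further: 0% = neutral control wells and 100% = positive control wells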
esBAF inh = Bmi1 luciferase reporter increase in mESCs, primary screen, esBAF inhibitor project, mouse ES cells, Bmi1 luciferase knock-in, single point; 24 h; 100% = twice the neutral-well signal; AID 602393, 2012; hit rate 2% among 350,000; reporter increase, % at 12.5 µM; in the data active means activation above about 40%;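 further: 0% = median of the plate's neutral control wells and 100% = double that signal; a rise in the Bmi1 reporter signal indicates esBAF inhibition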
Statin myotox sup = suppressors of statin myotoxicity in C2C12 myotubes, primary screen, cell-based, single point, plate reader; C2C12 myotubes + simvastatin, ATP luminescence, 48 h; scaled: DMSO 0, geranylgeraniol control 100; rescue of ATP level, % at 7.49 µM; hit rate 0.78% among 330,000;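 active means mean ATP rescue above about 67%, or every replicate alone reaching that limit, limit read from the data, passing the limit was not always enough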;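 further: myotubes were challenged with 10 µM simvastatin during compound exposure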
PglD inh = C. jejuni PglD acetyltransferase inhibitors, primary screen, biochemical, DTNB colorimetric, single point | UDP-N-acetylbacillosamine N-acetyltransferase PglD (Campylobacter jejuni) | purified PglD enzyme, DTNB colorimetric CoA detection | inhibition, % at 12.5 µM | hit rate 0.098% among 360,000 | AID 602405, 2012; in the data active means inhibition above about 16%, passing the limit was not always enough
* = called active by the depositor; . = no result given.

Values run as follows: E-sel inducer, Yeast UUG start, PGC1a acetyl inh, esBAF inh, Statin myotox sup, PglD inh
1	CC(C)NC(=O)N(C)C[C@@H]1Oc2cc(Br)ccc2S(=O)(=O)N([C@@H](C)CO)C[C@@H]1C
→ -1, -1, -11, -4, 1, 2
2	C[C@@H]1CN([C@@H](C)CO)C(=O)c2cccc(NC(=O)C3CC3)c2O[C@H]1CN(C)Cc1ccccc1
→ 52*, -3, -12, -3, -2, -4
3	C[C@H]1CN([C@@H](C)CO)C(=O)c2cccc(NC(=O)C3CC3)c2O[C@H]1CN(C)Cc1ccccc1
→ 27*, -7, 7, -1, -3, 13
4	C[C@@H]1CN([C@@H](C)CO)C(=O)c2cccc(NC(=O)C3CCOCC3)c2O[C@@H]1CN(C)Cc1ccncc1
→ 228*, -9, 21, 3, -1, 1
5	C[C@H](CO)N1C[C@H](C)[C@H](CN(C)CC2CC2)Oc2c(NC(=O)C3CC3)cccc2C1=O
→ 64*, -12, 5, -5, -18, -11
6	C[C@@H]1CN([C@H](C)CO)C(=O)c2cc(C#Cc3ccccc3)cnc2O[C@H]1CN(C)C(=O)C1CC1
→ 0, 5, 15, 3, -1, 1
7	O=C(C[C@@H]1CC[C@H](NC(=O)NC2CCCCC2)[C@H](CO)O1)NCc1ccc(Cl)cc1
→ 0, -1, -8, 2, 4, -1
8	CO[C@@H]1CN(C)C(=O)c2ccc(NC(=O)CC(F)(F)F)cc2OC[C@@H](C)N(C(C)=O)C[C@@H]1C
→ 0, ., 12, ., ., .
9	O=C(O)CCn1c2ccccc2c2nc3ccccc3nc21
→ ., -15, 4, 50*, -1, -7
10	COC(=O)Cn1c2ccccc2c2nc3ccccc3nc21
→ 1, -6, 3, 50*, -5, -5
11	COc1ccc(S(=O)(=O)Nc2ccc3c(c2)C(=O)N([C@H](C)CO)C[C@@H](C)[C@H](CN(C)C(=O)NC(C)C)O3)cc1
→ 12, -1, -4, -6, ., .
12	C[C@@H]1CCCCO[C@@H](CN(C)S(=O)(=O)c2ccc(Cl)cc2)[C@@H](C)CN([C@@H](C)CO)C(=O)c2cc(NC(=O)NC3CCCCC3)ccc2O1
→ 0, -4, -2, 8, ., -6
13	CCOC(=O)N1CCN(C(=O)C(c2ccccc2)c2ccccc2)CC1
→ ., ., 0, 1, 115*, .
14	CCOC(=O)N1CCN(C(=O)C(C)N(c2ccccc2)S(C)(=O)=O)CC1 (stereo not drawn)
→ 2, ., -26, ., ., .
15	CCOC(=O)N1CCN(C(=O)c2cc(Cl)c(Cl)cc2C(=O)O)CC1
→ ., ., 84*, ., ., .
16	CCC(=O)N1C[C@H](O)COC[C@H]2O[C@H](CC(=O)NCc3cc(F)cc(F)c3)CC[C@@H]21
→ 0, ., 15, -3, 8, 4
17	COc1ccc(NC(=O)C2CCCN2c2ccc(OC)c(OC)c2)cc1OC (stereo not drawn)
→ ., -17, -14, -4, 80*, -5
18	COc1ccc(NC(=O)C2CCCCN2N)cc1OC (stereo not drawn)
→ ., -21, 1, 6, ., -2
19	O=C(C[C@@H]1CC[C@@H]2[C@H](COC[C@H](O)CN2S(=O)(=O)c2ccc(Cl)cc2)O1)NCC1CCCCC1
→ 0, 13, -8, 1, 1, 2
20	Cc1cccc(NC(=S)NC2CCCC2)c1
→ 0, ., ., ., ., .
21	Cc1cccc(NC(=S)NC2CC3C=CC2C3)c1 (stereo not drawn)
→ 0, -29, 21, 10, 100*, 0
22	C[C@H](CO)N1C[C@H](C)[C@@H](CN(C)S(C)(=O)=O)OCCCC[C@H](C)Oc2ccc(NC(=O)CCC(F)(F)F)cc2C1=O
→ 0, ., -6, -3, -17, .
23	COc1ccc(-c2oc3ccccc3c2C(=O)OCc2ccc(O)cc2)cc1
→ 0, -11, -11, 45*, 18, 3
24	COc1ccc(-c2oc3ccccc3c2C(=O)OCc2ccccc2)cc1
→ 0, -21, -5, 27, 12, -7
25	Cc1cccc(NC(=O)CCCN2C(=O)c3ccccc3C2=O)n1
→ ., 0, ., -10, ., -2
26	Cc1cccc(NC(=O)CCCCCN2C(=O)c3ccccc3C2=O)n1
→ ., -6, -5, 3, 92*, 1
27	O=C(CCCn1c(=O)oc2ccccc21)Nc1ccccc1
→ 0, -8, ., 51*, 6, -1
28	O=C(CCn1c(=O)oc2ccccc21)N1CCc2ccccc21
→ ., -10, 6, 41*, 4, 6
29	O=C(CCCCCN1C(=O)c2ccccc2C1=O)Nc1ccc2c(c1)OCCO2
→ ., -7, -8, -13, 109*, 1
30	CNC[C@H]1OCCCC[C@@H](C)Oc2ccc(NC(=O)NC3CCCCC3)cc2C(=O)N([C@H](C)CO)C[C@H]1C
→ 0, 13, 5, -2, 8, 3

A second format for some results above:
30	CNC[C@H]1OCCCC[C@@H](C)Oc2ccc(NC(=O)NC3CCCCC3)cc2C(=O)N([C@H](C)CO)C[C@H]1C
  E-sel inducer = 0 | Yeast UUG start = 13 | PGC1a acetyl inh = 5 | esBAF inh = -2 | Statin myotox sup = 8 | PglD inh = 3
27	O=C(CCCn1c(=O)oc2ccccc21)Nc1ccccc1
  E-sel inducer = 0 | Yeast UUG start = -8 | PGC1a acetyl inh = . | esBAF inh = 51* | Statin myotox sup = 6 | PglD inh = -1
25	Cc1cccc(NC(=O)CCCN2C(=O)c3ccccc3C2=O)n1
  E-sel inducer = . | Yeast UUG start = 0 | PGC1a acetyl inh = . | esBAF inh = -10 | Statin myotox sup = . | PglD inh = -2
23	COc1ccc(-c2oc3ccccc3c2C(=O)OCc2ccc(O)cc2)cc1
  E-sel inducer = 0 | Yeast UUG start = -11 | PGC1a acetyl inh = -11 | esBAF inh = 45* | Statin myotox sup = 18 | PglD inh = 3

(further entries)
Values run as follows: E-sel inducer, Yeast UUG start, PGC1a acetyl inh, esBAF inh, Statin myotox sup, PglD inh
31	C[C@H](CO)N1C[C@H](C)[C@@H](CN(C)Cc2ccc(C(=O)O)cc2)Oc2ccc(NC(=O)Cc3ccccc3)cc2CC1=O
→ -2, -9, -1, -4, 31, 1
32	N#Cc1cccc(-c2ccc(C3[C@H]4CNC[C@@H]3N4S(=O)(=O)c3cccc(F)c3)cc2)c1 (stereo partly drawn)
→ 0, ., -9, ., ., .
33	COc1cccc(-c2ccc3n(c2=O)C[C@@H]2[C@@H](CO)[C@H](C(=O)N(C)C)N(C(=O)C4CCC4)[C@H]32)c1
→ 0, -9, ., -3, 12, 2
34	O=C(CCn1c(=O)oc2ccccc21)Nc1ccc2c(c1)OCCO2
→ 0, -12, -3, 57*, 11, 2
35	CC=Cc1ccc2n(c1=O)C[C@H]1[C@H](CO)[C@@H](C(=O)NCC3CC3)N(Cc3ccccc3)[C@@H]21 (mixture of isomers)
→ 0, ., 1, 0, 2, -2
36	C=C(C)CNC(=S)Nc1nc2c(cc1C(=O)OCC)CCCC2
→ 0, -14, ., 62*, -4, -6
37	O=C(Nc1ccc2c(c1)OCCO2)c1ccc(Br)s1
→ ., -40, -2, ., ., 5
38	CCc1sc(C(=O)Nc2ccc(N3CCOCC3)cc2)cc1C
→ 0, -3, -1, ., -55, -2
39	CCc1sc(C(=O)Nc2ncccc2C)cc1C
→ ., -14, ., 54*, 13, -3
40	CCc1sc(C(=O)Nc2ccc3c(c2)OCCO3)cc1Br
→ 0, -19, ., 51*, -12, -1
41	CCc1sc(C(=O)Nc2ccc3c(c2)OCO3)cc1C
→ 1, -20, -17, 51*, 5, 4
42	CC(C)(O)C#Cc1ccc(C(=O)Nc2ccc3c(c2)OCO3)s1
→ 19, -21, -1, 63*, -22, 2
43	COCC(=O)Nc1ccc2c(c1)OC[C@H](C)N(C(=O)c1cccnc1)C[C@H](C)[C@@H](OC)CN(C)C2=O
→ 0, -10, 1, -3, 2, 0
